Values of other authors as cited in US12673014B2, “Inhibitors of glycosphingolipid synthesis and methods of use” (priority 2018, dated 2026).

Protein sequences, listed by entry. Tags and fused reporters are not part of them. Lines headed by an entry give the natural chain unless they say otherwise; changes in a name come on top.
UniProt O88693: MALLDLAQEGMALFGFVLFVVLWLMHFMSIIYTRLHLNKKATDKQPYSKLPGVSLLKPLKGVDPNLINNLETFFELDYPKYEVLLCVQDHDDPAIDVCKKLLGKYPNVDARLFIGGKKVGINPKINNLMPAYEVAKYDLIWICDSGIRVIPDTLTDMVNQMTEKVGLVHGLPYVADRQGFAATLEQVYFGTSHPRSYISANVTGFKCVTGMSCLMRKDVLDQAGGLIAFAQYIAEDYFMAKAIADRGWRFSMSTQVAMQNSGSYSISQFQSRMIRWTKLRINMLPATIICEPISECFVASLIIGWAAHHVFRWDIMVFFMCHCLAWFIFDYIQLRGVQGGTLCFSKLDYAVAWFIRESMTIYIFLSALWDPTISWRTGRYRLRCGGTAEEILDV

What was measured:
[1] = biological target: glucosylceramide synthase (Mus musculus, UniProt O88693); conditions: ApoE-/- mice, high fat and cholesterol diet; cited from earlier work
[2] = system: lactosylceramide synthase; conditions: ApoE-/- mice, high fat and cholesterol diet; cited from earlier work

Compound: CCCCCCCCCC(=O)N[C@H](CN1CCOCC1)[C@H](O)c1ccccc1 [D-PDMP, D-threo-1-phenyl-2-decanoylamino-3-morpholino-1-propanol]
- activity of glucosylceramide synthase in liver tissue [1]: dose-dependently decreased
- activity of lactosylceramide synthase in liver tissue [2]: dose-dependently decreased
